The term Km denotes the concentration of substrate that gives half-maximal velocity.

Amino acid sequences for entries named in this document (tags omitted).
UniProt P60472, whole entry: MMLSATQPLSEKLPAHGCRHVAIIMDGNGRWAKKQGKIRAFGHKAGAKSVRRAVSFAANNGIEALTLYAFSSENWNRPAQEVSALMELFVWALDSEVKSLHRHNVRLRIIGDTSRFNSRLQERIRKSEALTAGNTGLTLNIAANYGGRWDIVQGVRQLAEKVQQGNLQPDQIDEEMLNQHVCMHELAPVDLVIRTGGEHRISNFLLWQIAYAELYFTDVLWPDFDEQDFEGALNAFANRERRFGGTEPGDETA

Molecules are shown by their SMILES.

Consider 13 molecules from EP2848693A1, “Concatenation of halogenated alkenyl diphosphate derivatives” (LANXESS Deutschland GmbH, priority 2013, dated 2015).

The target in this assay is E. coli Undecaprenyldiphosphatsynthase (EcUPPS) (Escherichia coli, UniProt P60472). In words: MTP phosphate detection assay (diphosphate release, BIOMOL Green), substrate kinetics. The conditions noted are these: for rel. kcat Km^-1: relative to natural substrate FPP (100 %); for Km: starter substrate varied 80 - 0 µM, elongation substrate IPP constant 150 µM, 22°C; for kcat / vmax: starter substrate varied, IPP constant 150 µM.

`CC(C)=CCCC#CCC/C(C)=C/COP(=O)(O)OP(=O)(O)O`: the “rel. kcat Km^-1” value is on record as 33%, the Km turned out to be 4.2 µM, the kcat is given as 0,4 s^-1 and the vmax is reported as 13,7 ± 0,3 nkat/mg.

As to `CC(C)=CCSC/C(C)=C/CC/C(C)=C/COP(=O)(O)OP(=O)(O)O`, the “rel. kcat Km^-1” value was determined as 22%, the Km amounted to 5.1 µM, the kcat was 0,3 s^-1 and the vmax is 11,5 ± 0,5 nkat/mg.

Take `C/C(=C\COP(=O)(O)OP(=O)(O)O)CC/C=C(\C)CSc1ccccc1`: the “rel. kcat Km^-1” value is 89%, the Km worked out at 2.1 µM, the kcat was 0,5 s^-1 and the vmax is on record as 18,5 ± 0,7 nkat/mg.

For `C#CCC/C(C)=C/CC/C(C)=C/COP(=O)(O)OP(=O)(O)O`, the “rel. kcat Km^-1” value came to 4%, the Km worked out at 6.4 µM, the kcat is 0,1 s^-1 and the vmax is 2,9 ± 0,2 nkat/mg.

On to `CC(=CCOP(=O)(O)OP(=O)(O)O)CCc1ccco1`, for which the “rel. kcat Km^-1” value was 34%, the Km turned out to be 1.8 µM, the kcat is 0,2 s^-1 and the vmax was 6,1 ± 0,2 nkat/mg.

As to `C=CCC/C(C)=C/CC/C(C)=C/COP(=O)(O)OP(=O)(O)O`, the “rel. kcat Km^-1” value is 60%, the Km worked out at 2.5 µM, the kcat is recorded as 0,4 s^-1 and the vmax was 14,9 ± 0,2 nkat/mg.

Turning to `CC(C)=CCOC/C(C)=C/CC/C(C)=C/COP(=O)(O)OP(=O)(O)O`, the “rel. kcat Km^-1” value amounted to 2%, the Km worked out at 32.1 µM, the kcat was 0,2 s^-1 and the vmax is 6,3 ± 0,3 nkat/mg.

As to `C/C(=C\COP(=O)(O)OP(=O)(O)O)CC/C=C(\C)CO[Si](C)(C)C(C)(C)C`, the “rel. kcat Km^-1” value amounted to 13%, the Km came to 10.7 µM, the kcat was 0,4 s^-1 and the vmax is recorded as 14,4 ± 0,8 nkat/mg.

For the molecule `C/C(=C\COP(=O)(O)OP(=O)(O)O)CC/C=C(\C)CC(=O)c1cccs1`, the “rel. kcat Km^-1” value turned out to be 3%, the Km is 61.1 µM, the kcat is recorded as 0,5 s^-1 and the vmax is recorded as 18,1 ± 1,5 nkat/mg.

In the case of `CC(=CCOP(=O)(O)OP(=O)(O)O)CCc1cccs1`, the “rel. kcat Km^-1” value is listed as 8%, the Km turned out to be 11.6 µM, the kcat is listed as 0,3 s^-1 and the vmax is reported as 8,9 ± 0,6 nkat/mg.

For `C/C(=C\COP(=O)(O)OP(=O)(O)O)CC/C=C(\C)CC(=O)c1sccc1C`, the “rel. kcat Km^-1” value is on record as 4%, the Km worked out at 9.1 µM, the kcat is reported as 0,1 s^-1 and the vmax is 3,5 ± 0,2 nkat/mg.

`C/C(=C\COP(=O)(O)OP(=O)(O)O)CC/C=C(\C)CC(=O)c1ccco1`: the “rel. kcat Km^-1” value turned out to be 9%, the Michaelis-Menten constant (Km) stood at 38 µM, the kcat is given as 1,0 s^-1 and the vmax is recorded as 33,6 ± 2,1 nkat/mg.

`CC(C)=CCC/C(C)=C/COC/C(C)=C/COP(=O)(O)OP(=O)(O)O`: the “rel. kcat Km^-1” value is on record as 6%, the Km is 4.8 µM, the kcat is 0,1 s^-1 and the vmax was 2,9 ± 0,2 nkat/mg.
